The values that follow come from article PMC11045757, “Group 3 medulloblastoma transcriptional networks collapse under domain specific EP300/CBP inhibition” (Nature Communications, 2024).

The chains behind the UniProt entries cited, without tags or fusion partners. Residues count along the entry.
UniProt Q92793, 1081-1197: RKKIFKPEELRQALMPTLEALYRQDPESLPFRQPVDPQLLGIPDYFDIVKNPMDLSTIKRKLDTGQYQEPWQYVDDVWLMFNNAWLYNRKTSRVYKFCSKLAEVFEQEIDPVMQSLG
UniProt Q92793, whole entry: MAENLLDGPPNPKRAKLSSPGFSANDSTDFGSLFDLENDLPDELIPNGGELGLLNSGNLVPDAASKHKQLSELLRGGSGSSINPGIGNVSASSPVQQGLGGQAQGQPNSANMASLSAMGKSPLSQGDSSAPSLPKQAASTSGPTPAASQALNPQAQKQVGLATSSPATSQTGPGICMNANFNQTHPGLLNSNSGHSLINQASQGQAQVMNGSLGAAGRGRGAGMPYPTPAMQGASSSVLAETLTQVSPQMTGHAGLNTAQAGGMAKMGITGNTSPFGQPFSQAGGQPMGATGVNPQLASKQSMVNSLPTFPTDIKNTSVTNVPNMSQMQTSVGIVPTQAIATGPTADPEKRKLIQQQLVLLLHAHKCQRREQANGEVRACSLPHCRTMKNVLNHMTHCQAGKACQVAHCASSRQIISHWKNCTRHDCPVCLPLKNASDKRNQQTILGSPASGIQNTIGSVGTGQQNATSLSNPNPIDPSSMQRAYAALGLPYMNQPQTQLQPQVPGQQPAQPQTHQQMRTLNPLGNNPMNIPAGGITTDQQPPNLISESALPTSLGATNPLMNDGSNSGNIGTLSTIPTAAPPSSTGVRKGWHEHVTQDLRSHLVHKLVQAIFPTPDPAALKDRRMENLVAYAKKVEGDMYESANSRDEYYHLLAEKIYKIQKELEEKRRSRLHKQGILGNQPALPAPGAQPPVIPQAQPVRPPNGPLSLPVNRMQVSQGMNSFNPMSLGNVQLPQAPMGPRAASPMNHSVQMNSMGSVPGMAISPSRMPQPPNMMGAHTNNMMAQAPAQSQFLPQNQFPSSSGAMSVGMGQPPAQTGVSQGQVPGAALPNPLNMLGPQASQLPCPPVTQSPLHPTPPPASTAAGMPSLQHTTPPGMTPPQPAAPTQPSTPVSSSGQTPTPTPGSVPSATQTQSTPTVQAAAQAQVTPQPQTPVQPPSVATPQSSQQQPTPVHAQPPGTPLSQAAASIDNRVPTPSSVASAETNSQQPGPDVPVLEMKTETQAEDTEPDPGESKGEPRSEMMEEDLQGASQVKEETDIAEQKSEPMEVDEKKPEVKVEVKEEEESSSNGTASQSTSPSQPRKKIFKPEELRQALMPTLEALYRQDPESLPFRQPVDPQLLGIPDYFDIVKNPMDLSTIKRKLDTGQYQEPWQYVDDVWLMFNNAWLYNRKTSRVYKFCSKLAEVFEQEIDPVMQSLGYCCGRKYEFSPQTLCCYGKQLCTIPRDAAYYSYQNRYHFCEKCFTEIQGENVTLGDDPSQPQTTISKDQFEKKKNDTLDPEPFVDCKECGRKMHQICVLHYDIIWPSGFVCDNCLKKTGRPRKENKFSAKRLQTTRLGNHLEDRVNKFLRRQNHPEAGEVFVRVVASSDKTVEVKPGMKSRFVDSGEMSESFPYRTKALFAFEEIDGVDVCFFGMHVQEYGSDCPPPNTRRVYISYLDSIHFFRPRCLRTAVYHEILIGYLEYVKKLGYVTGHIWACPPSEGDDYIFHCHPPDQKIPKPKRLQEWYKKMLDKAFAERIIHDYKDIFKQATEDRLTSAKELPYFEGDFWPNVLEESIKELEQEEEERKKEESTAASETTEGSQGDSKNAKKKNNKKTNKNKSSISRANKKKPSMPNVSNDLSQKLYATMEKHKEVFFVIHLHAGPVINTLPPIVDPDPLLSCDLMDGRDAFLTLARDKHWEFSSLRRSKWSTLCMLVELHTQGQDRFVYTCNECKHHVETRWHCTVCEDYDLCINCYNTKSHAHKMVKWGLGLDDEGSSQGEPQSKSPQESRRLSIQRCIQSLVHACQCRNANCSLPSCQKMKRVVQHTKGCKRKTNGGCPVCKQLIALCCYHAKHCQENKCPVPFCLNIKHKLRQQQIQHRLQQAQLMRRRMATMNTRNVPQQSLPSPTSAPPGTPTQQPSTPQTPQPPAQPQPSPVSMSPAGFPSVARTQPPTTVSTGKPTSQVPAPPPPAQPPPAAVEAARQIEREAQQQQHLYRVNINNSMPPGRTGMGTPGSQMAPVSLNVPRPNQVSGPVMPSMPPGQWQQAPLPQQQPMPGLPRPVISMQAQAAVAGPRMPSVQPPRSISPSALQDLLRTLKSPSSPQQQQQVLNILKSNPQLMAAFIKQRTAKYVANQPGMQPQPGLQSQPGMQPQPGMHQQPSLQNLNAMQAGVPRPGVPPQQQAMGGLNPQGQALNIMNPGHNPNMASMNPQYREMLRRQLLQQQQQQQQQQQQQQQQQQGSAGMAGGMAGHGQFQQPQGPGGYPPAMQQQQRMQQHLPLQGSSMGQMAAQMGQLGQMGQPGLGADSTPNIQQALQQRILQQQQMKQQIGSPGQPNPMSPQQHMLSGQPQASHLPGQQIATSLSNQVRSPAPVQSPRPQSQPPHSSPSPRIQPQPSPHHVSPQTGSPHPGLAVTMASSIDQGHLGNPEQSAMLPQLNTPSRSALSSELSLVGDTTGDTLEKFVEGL
UniProt Q92793, 1085-1192 limits assumed: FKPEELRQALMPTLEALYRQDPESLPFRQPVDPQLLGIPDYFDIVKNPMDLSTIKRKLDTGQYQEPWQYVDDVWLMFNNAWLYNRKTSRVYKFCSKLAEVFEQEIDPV
UniProt Q09472, 1048-1161: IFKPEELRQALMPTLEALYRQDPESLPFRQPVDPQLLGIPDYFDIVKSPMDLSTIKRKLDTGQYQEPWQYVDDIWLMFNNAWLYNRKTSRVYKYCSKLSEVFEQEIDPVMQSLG

The structures appear in SMILES notation. “And” between values parts separate entries of the source, which are not always exact repeats. Equal entries are not always repeated. Where two headings read alike, the source gives them in different places.

A word on the Kd: it is the concentration at which binding is half-saturated.

The target in experiment [1] is T1, CBP bromodomain (Homo sapiens, UniProt Q92793).
T1 construct: CBP (residues 1081-1197); 6xHis (cleaved yes); host or cells: E. coli BL21 (DE3) RIL
In words: Differential scanning fluorimetry (DSF) thermal shift. It counts as binding. The following applies: for ΔTm (°C): DSF thermal shift vs DMSO, Fig 2B. The procedure:
(§1) After 18 h growth, the culture was harvested by centrifugation at 6000 × g for 25 min and stored at -80 °C. Harvested cell pellets were re-suspended in 50 mM Na/K phosphate buffer (pH 7.4) containing 100 mM NaCl, 40 mM imidazole, 0.01% w/v lysozyme and 0.01% v/v Triton X-100 at 4 °C for 1 h, subjected to sonication and the lysate was clarified by centrifugation (30,000 × g for 45 min at 4 °C). Proteins were purified by FPLC at 4 °C using columns and chromatography materials from GE Healthcare. […] Proteins were purified to homogeneity by size exclusion chromatography using Superdex 75 equilibrated with elution buffer (50 mM HEPES pH 7.5, 100 mM NaCl, 2 mM DTT). […] Pool fractions were combined, concentrated to 10–12 mg/ml, and aliquots were flash-frozen in liquid N2 and stored at −80 °C.
DSF experiments were performed with an Applied Biosystem StepOnePlus real-time PCR system (Thermo Fisher Scientific) using 96-well format plates, assayed in quadruplicate. For thermal shift determination, 5 μM protein was mixed with 100 μM compound in 50 mM HEPES, pH 7.5, 150 mM NaCl, 2 mM DTT, 2% DMSO, 5X SYPRO Orange (Thermo Fisher Scientific) in 20 μL reaction volumes.
(DSF heats the sample and reads unfolding from a dye or from intrinsic fluorescence.)

Experiment [2] deals with CREBBP (Homo sapiens, UniProt Q92793). In words: biochemical. The following applies: read-out: Percent Control CREBBP. The procedure: Dose-response sequencing data was processed to determine area-under-the-curve (AUC) values, as previously described[33],[34]. Tumor type assignments for cell lines were determined using the Cancer Cell Line Encyclopedia annotations. […] Tumor grouping analyses were restricted to those with >3 representative cell lines. AUC data for each compound was normalized across all cell lines treated by calculating the median AUC per treatment and then median normalizing the data.

The subject of experiment [3] is 460 barcoded cancer cell lines. Description: PRISM pooled barcoded cancer cell line growth screen, 10-point dose-response, 5 days, AUC. The class given is cell-based. Further details: scale not given here. An excerpt: Several small molecule inhibitors of distinct protein domains of EP300/CBP are available, though the majority target the histone acetyltransferase domain (HAT) or bromodomain (BRD)[5],[10],[21],[22]. […] Thus, these compounds provide a unique opportunity to compare the effects of domain-specific inhibition of EP300 and CBP. We used these tools to investigate the relative contribution of the EP300/CBP BRD or HAT domain to tumor cell growth (Fig. 1a). To do so, we performed 10-point, dose-response growth assays using mixed pools of 460 barcoded cancer cell lines, over five days of treatment in vitro[33],[34]. Growth was measured using an area-under-the-curve (AUC) approach (Supplementary Table 1, Supplementary Fig. 1a). […] Given potential differences in compound penetration and solubility, and to compare the relative cell line and tumor-specific effects of these two compounds in assays performed non-simultaneously, we performed a median normalization of each dataset (Supplementary Table 2). […] Next, we sought to use this to examine the relative cell line-specific response to either A485 or CCS1477.

Experiment [4] concerns the target GFP-tagged CBP bromodomain (Homo sapiens, UniProt Q92793). In words: Microscale thermophoresis (MST). The class given is binding. The procedure:
MST experiments were performed in a Monolith NT.115 Pico instrument (NanoTemper Technologies) following published procedures. […] MST traces were recorded using standard parameters: 5 s MST power off, 30 s MST power on and 5 s MST power off. Measurements were taken at -1-0 s (cold region) and 10 s (hot region) and data were analyzed using the NTAnalysis software.
For orientation: MST reads how a fluorescent partner responds to local heating, with and without ligand.

Experiment [5] concerns the target T2, EP300 bromodomain (Homo sapiens, UniProt Q09472).
T2 construct: 6xHis (cleaved yes); host or cells: E. coli BL21 (DE3) RIL
In words: Isothermal titration calorimetry (ITC). The class given is binding. The note with it: single ITC experiment, data fit ± SEM. The procedure: as §1
A general note: Isothermal titration calorimetry measures the heat released or taken up as one component is titrated into another.

Experiment [6] has as its target T1, CBP bromodomain. Description: Isothermal titration calorimetry (ITC). The class given is binding. The note with it: single ITC experiment, data fit ± SEM. The procedure:
At OD600 of 0.6, the culture was cooled down to 18 °C and induced with 0.1 mM IPTG. After 18 h growth, the culture was harvested by centrifugation at 6000 × g for 25 min and stored at -80 °C. Harvested cell pellets were re-suspended in 50 mM Na/K phosphate buffer (pH 7.4) containing 100 mM NaCl, 40 mM imidazole, 0.01% w/v lysozyme and 0.01% v/v Triton X-100 at 4 °C for 1 h, subjected to sonication and the lysate was clarified by centrifugation (30,000 × g for 45 min at 4 °C). Proteins were purified by FPLC at 4 °C using columns and chromatography materials from GE Healthcare. […] Proteins were purified to homogeneity by size exclusion chromatography using Superdex 75 equilibrated with elution buffer (50 mM HEPES pH 7.5, 100 mM NaCl, 2 mM DTT). All BRDs eluted as monomeric protein and were of crystallization grade quality (>95% purity as judged by SDS-PAGE). […]
All experiments were conducted using an PEAQ-ITC calorimeter (Malvern Scientific). […] Data were corrected for dilution and analyzed using the MicroCal Origin software to determine the enthalpies of binding (ΔH) and binding constants as described. Thermodynamic parameters were calculated using the basic equation of thermodynamics (ΔG = ΔH − TΔS = −RTlnKB) where ΔG, ΔH and ΔS are the changes in free energy, enthalpy and entropy of binding, respectively. […]

Consider `COc1ccc(CCc2nc3cc(-c4c(C)noc4C)ccc3n2C[C@H](C)N2CCOCC2)cc1Cl` [SGC-CBP30], for which the “ΔTm (°C)” value in experiment [1] (CBP bromodomain) amounted to 8.5 °C.
Turning to `CO[C@H]1CC[C@H](n2c([C@@H]3CCCC(=O)N3c3ccc(F)c(F)c3)nc3cc(-c4c(C)noc4C)ccc32)CC1` [CCS1477], in experiment [1] (CBP bromodomain), the “ΔTm (°C)” value came out at 17.7 °C. In experiment [1] (DSF, 5 μM protein, 100 μM compound, three independent experiments, average ± SD), the “∆Tm (°C) CBP” value was 17.7 ± 0.08 °C and 17.7 °C. Moreover, the “ΔTm (°C) CBP” value in experiment [1] (Figure 3A, DSF, CBP bromodomain) was 17.7 °C; in experiment [1] (Figure 3B, DSF, CBP), 17.7 °C. The “DSF ΔTm (°C)” value in experiment [1] (Figure 3C, DSF (values equal CBP column)) was determined as 17.7 °C. Besides, in experiment [2], the remaining activity at 1 µM worked out at 0.7%. Moreover, the AUC was 0.852 in experiment [3] (AGS, Gastric Cancer); 0.8771 in experiment [3] (CHAGOK1, Lung Cancer); 0.8768 in experiment [3] (COV644, Ovarian Cancer); 0.8771 in experiment [3] (LS1034, Colon/Colorectal Cancer); 0.9189 in experiment [3] (MHHES1, Ewing Sarcoma); 0.8888 in experiment [3] (SNU398, Liver Cancer). Besides, the AUC in experiment [3] (TE5, Esophageal Cancer) is recorded as 0.8767. Also, the dissociation constant Kd in experiment [4] (MO.Affinity Analysis export, single runs, target clGFP-CBPBRD 5e-8, unit inferred, read-out: Kd (fit result of individual MST run)) is 0.919 nM and 3.02 nM; in experiment [4] (three independent MST experiments, average ± SD, read-out: Kd (nM) CBP (converted)), 1.3 nM; in experiment [5] it was 26 nM and 25.5 nM; in experiment [6], 4 ± 6.7 nM.
